AlphaSeq binding of Ab-91 heavy chain variants to a spike HR2 peptide

From the AlphaSeq antibody data of Engelhart et al. 2022 (doi:10.1038/s41597-022-01779-4), copy in the FLAb collection.

Target: peptide PDVDLGDISGINAS, taken from heptad repeat 2 (HR2) of SARS-CoV-2 spike.

Parent: Ab-91, a human scFv built as VL, a (GGGGS)3 linker, VH. Only the CDRs of the heavy chain vary.
VL: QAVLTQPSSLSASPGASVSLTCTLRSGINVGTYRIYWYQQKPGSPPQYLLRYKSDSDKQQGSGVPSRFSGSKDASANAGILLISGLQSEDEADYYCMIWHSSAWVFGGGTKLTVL
VH: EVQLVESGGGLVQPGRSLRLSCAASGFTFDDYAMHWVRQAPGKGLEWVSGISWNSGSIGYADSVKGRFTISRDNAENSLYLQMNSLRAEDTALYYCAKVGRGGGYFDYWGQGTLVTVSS

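Phage display of a naive human antibody library on the peptide gave the parent. Variants in AAYL51 differ from the parent at up to three CDR positions; double and triple changes were sampled at random. In AlphaSeq, yeast of one mating type display the scFv and yeast of the other type display the target. Pairs that bind mate more often; barcode pairs of the diploids are counted by sequencing. The ratio of observed to expected reads was calibrated, replicate by replicate, on BCL2-family standards whose Kd was known from biolayer interferometry. Each pool was mated in three replicate cultures.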

Variants are written as CDR1, CDR2 and CDR3 of the heavy chain (limits as in the source). Parent: GFTFDDYAMH, GISWNSGSIGYADSVK, VGRGGGYFDY. The read-out is the apparent dissociation constant on a log10 scale (nM): the lower, the stronger. The mean shown is taken over the replicates in which the pair was detected. "nd" means that the variant was in the library but no mating with the target was seen in that replicate; the authors take this as a sign of poor binding, and no number exists. Three control strains display no target. For library AAYL51, 21% of the pairings with them gave a signal, with a median of 4.54 and one signal in twenty below 3.26, so weak values seen in few replicates may be background. For each scFv, signals with the empty controls are counted beside the result, with their mean in brackets.

CDR-H1	CDR-H2	CDR-H3	log10 Kd, replicates	log10 Kd (nM), mean	signal with controls
GFTFDDYAMG	GISWNSGSDGYADSVK	VGRGGGYFDW	5.60 4.53 4.83	4.98	5/9 (5.25)
GYTFDDYAQH	GDSWNSGSIGYADSVK	VGRGGGYFDY	nd nd nd	nd	0/9
GFTFDDYAMH	GISWNSGSIGVADSVK	VGRGMGYFDY	nd nd nd	nd	0/9
GETFDVYAMH	GISWNSGSIGYADSQK	VGRGGGYFDY	nd nd nd	nd	0/9
GFTFDDYAMH	GISWDSPSIGYADSVK	VGRGGGWFDY	6.15 5.05 5.66	5.62	5/9 (5.03)
GFTFDDYAMH	GISWVHGSIDYADSVK	VGRGGGYFDY	nd nd nd	nd	0/9
GFTFDDYAMH	GIAWNSGLIGYADSVK	VGRGGGYFDV	4.18 6.08 4.41	4.89	3/9 (5.41)
GFTFDDYAMH	GISWNSGSIGYADSVK	QGRGGGYFPH	nd nd nd	nd	0/9
HFTFDDYAMH	MISWNSGSIGYADSVA	VGRGGGYFDY	nd 4.04 nd	4.04	1/9 (3.16)
GFTFAQYAMH	GISWNSGSIGYADSVK	VIRGGGYFDY	nd 5.03 nd	5.03	1/9 (5.19)
GFTFDDYYMH	LISWNSGSIGYADSVK	FGRGGGYFDY	nd nd nd	nd	0/9
GFTFDDYASH	GISWNSGSIGYADSVK	VGRGGGWQDY	4.62 5.48 nd	5.05	5/9 (4.92)
GFTFDDYAMH	DISWHSGSIGYADSVK	VGRGGGRFDY	4.82 nd 5.25	5.04	2/9 (4.79)
GNTFDDYAMH	GISWDSGLIGYADSVK	VGRGGGYFDY	nd nd nd	nd	0/9
GFTECDYAMH	DISWNSGSIGYADSVK	VGRGGGYFDY	nd nd nd	nd	2/9 (3.05)
IFTFDDYAMH	GISWNSQSIGLADSVK	VGRGGGYFDY	5.30 4.31 4.08	4.56	3/9 (5.79)
GFHFDDYAMH	GIDWNSGSVGYADSVK	VGRGGGYFDY	2.35 2.59 1.54	2.16	1/9 (3.64)
GFTFDDYAMH	GISWNSGSIGYRDSVG	VGRKGGYFDY	nd nd nd	nd	1/9 (3.34)
GFTFDDYAMH	GHSWNSGSIGYADSVK	LGRGHGYFDY	nd nd nd	nd	1/9 (5.17)
FFTFDDYAMH	RISWNSGSIGYADSVK	VGRGGGYFDK	5.48 5.71 nd	5.60	5/9 (4.78)
GFTFDDYAMH	GISWNIGSIGFHDSVK	VGRGGGYFDY	4.14 5.67 nd	4.90	0/9
GFGFDDYAMH	EISWNSGSIGYADSVK	VGRGGGYFDY	6.22 4.33 nd	5.27	0/9
GFTFDDYAQS	TISWNSGSIGYADSVK	VGRGGGYFDY	nd nd nd	nd	0/9
GFTFCDYAMH	GISWNSGSIEYADSVK	VCRGGGYFDY	nd 5.35 nd	5.35	2/9 (3.49)
GFTFDDYAMH	IYSWNSGSIGYADSVK	SGRGGGYFDY	nd nd nd	nd	0/9
GFEFDDYKMH	GISWNSSSIGYADSVK	VGRGGGYFDY	3.65 nd nd	3.65	5/9 (4.49)
GFTFDVYAMH	GISWNSGSIGYADSVK	VLRGGGYFDP	4.48 nd nd	4.48	1/9 (5.28)
GGTYDSYAMH	GISWNSGSIGYADSVK	VGRGGGYFDY	nd nd 5.08	5.08	2/9 (4.37)
GFTFDDYAMH	GIHWNSGSRGYADSVN	VGRGGGYFDY	nd nd nd	nd	3/9 (4.63)
GFTFDDYAMH	GISRQSGSIGYADSVK	VGRGGGYFCY	2.81 3.04 3.76	3.21	2/9 (4.41)
GFTFDDYAMH	GYSWNSGSIGYADSVK	VGRGGGCFDY	nd 3.95 nd	3.95	1/9 (4.86)
GFTFDDYAMH	GISWNSGSIGYKYSVK	VGPGGGYFDY	3.92 nd nd	3.92	0/9
GFTFDDPAMH	GKDWNSGSIGYADSVK	VGRGGGYFDY	nd nd nd	nd	0/9
GFTFDDYQVH	GISWNSGSIGYANSVK	VGRGGGYFDY	nd 4.08 nd	4.08	2/9 (4.47)
GFTFDDYAMH	GISWNSGNIGYADSVK	VGGGGAYFDY	nd nd 4.56	4.56	1/9 (4.91)
GFTFDDYAMH	GIEWNSGHITYADSVK	VGRGGGYFDY	nd nd nd	nd	1/9 (3.76)
GFTFDDYAWH	GISWNSGSIKYADSVC	VGRGGGYFDY	nd nd nd	nd	0/9
GFTFDDYATH	GISWNSGSIGYADSVK	VPRGGGYFDY	3.65 4.38 4.12	4.05	6/9 (4.80)
GFTFDDYANH	GISWNSGSIGGADSMK	VGRGGGYFDY	nd nd nd	nd	0/9

The closing 5 entries, repeated:

CDR-H1	CDR-H2	CDR-H3	log10 Kd, replicates	log10 Kd (nM), mean	signal with controls
GFTFDDYAMH	GISWNSGNIGYADSVK	VGGGGAYFDY	nd nd 4.56	4.56	1/9 (4.91)
GFTFDDYAMH	GIEWNSGHITYADSVK	VGRGGGYFDY	nd nd nd	nd	1/9 (3.76)
GFTFDDYAWH	GISWNSGSIKYADSVC	VGRGGGYFDY	nd nd nd	nd	0/9
GFTFDDYATH	GISWNSGSIGYADSVK	VPRGGGYFDY	3.65 4.38 4.12	4.05	6/9 (4.80)
GFTFDDYANH	GISWNSGSIGGADSMK	VGRGGGYFDY	nd nd nd	nd	0/9